Measured values published in ChEMBL document CHEMBL2429777, “Synthesis and antibacterial activity evaluation of 2,6-bis(6-substituted-1,2,4-triazolo[3,4-b][1,3,4]thiadiazol-3-yl)pyridine derivatives” (2013).

Test system: Escherichia coli

GENTAMICIN was tested, and the MIC was 0.5 µg/mL.
